Patent US12533439B2, “Antibacterial wound treatments with clot-promoting properties” (University of Georgia Research Foundation, Inc., priority 2019, dated 2026)

Test system: 3T3 mouse fibroblast cells
Assay: WST-8 (CCK-8) cell viability assay on dressing leachates
Assay type: cell-based
Conditions: 24-hour leachate

**Q.** For `NC[C@H]1CC[C@H](C(=O)O)CC1` [TXA, tranexamic acid], which “cytotoxicity (relative cell viability)” value is on record?
**A.** non-cytotoxic
